# From patent US20220387268A1, “OIL-IN-WATER MACROEMULSION” (SYMRISE AG, priority 2019, published 2022)
# Assay: log P value (octanol:water)
# Format: physicochemical
# Conditions: water/n-octanol
# Source text: The partition coefficient (P) is the ratio of concentrations of a compound in a mixture of two immiscible solvents at equilibrium. This ratio is therefore a comparison of the solubility of the solute in these two liquids. In the chemical and pharmaceutical sciences, both phases usually are solvents. Most commonly, one of the solvents is water, while the second is hydrophobic such as 1-octanol.
# Log P=log 10(Partition Coefficient)
# Partition Coefficient,P=[organic]/[aqueous]
smiles,measurement,value
CC(=O)OC1CCCCC1C(C)(C)C (stereo not shown) [AGRUMEX LC],log P,4.42
